# According to PubChem BioAssay AID1259313 (Sanford-Burnham Center for Chemical Genomics, 2017):
# Only a part is listed here, and it is no random draw. Calls of active or inactive are those of the source.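 The calls were made as follows: active = melting temperature shift of at least 10% of the positive control shift, at one fixed dose; inactive = the rest.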
# Tested on: Glutamate receptor ionotropic, NMDA 3A (GRIN3A) ligand-binding domain
# Test: NR3A LBD thermal stabilization by compounds – biophysical, differential scanning fluorimetry, uHTS, primary screen (AID 1259313)
# Settings: at 25 µM, hits give high values, 0% = protein alone, 100% = glycine-bound protein
row,SMILES,Tm shift relative to glycine control
1,O=[N+]([O-])c1ccc(O)c(/C=N/Nc2ccc([N+](=O)[O-])cc2[N+](=O)[O-])c1,inactive: 1.64%
2,O=[N+]([O-])c1ncn(CCn2cnc([N+](=O)[O-])n2)n1,inactive: 0.31%
3,CC(=O)NC(SC(=S)N(C)C)C(Cl)(Cl)Cl (stereo not given),inactive: -0.17%
4,O=[As](O)(c1ccccc1)c1ccc(O)cc1,inactive: -0.16%
5,Nc1ccc([As](=O)(O)c2ccc([N+](=O)[O-])cc2)cc1,inactive: -1.68%
6,C(Cc1nn[nH]n1)Cc1nn[nH]n1,inactive: -3.48%
7,O=C(OC1CN2CCC1CC2)c1cccc(Cl)c1 (stereo not given),inactive: 0.6%
8,COc1ccc(N)c([N+](=O)[O-])c1[N+](=O)[O-],inactive: 4.15%
9,O=P(Nc1ccccn1)(c1ccc(Br)cc1)c1ccc(Br)cc1,inactive: -4.54%
10,CN(C)C1(CNC(=O)c2ccc(Cl)c(S(N)(=O)=O)c2)CCCCC1,inactive: -2.02%
11,O=P(Nc1nc2ccccc2s1)(c1ccccc1)c1ccccc1,inactive: -0.16%
12,C[C@H]1OP(=O)(Oc2ccccc2)[C@H](O)[C@H](O)[C@H]1N=[N+]=[N-] (stereo not given in full),inactive: 0.9%
13,CC(C)C(=O)NC(Sc1ccccc1)C(Cl)(Cl)Cl (stereo not given),inactive: 3.57%
14,O=P(Nc1nccs1)(c1ccccc1)c1ccccc1,inactive: 0.7%
15,c1nnnn1CCn1cnnn1,inactive: 3.15%
16,N#C/C(=C\c1ccc(N(CCBr)CCBr)cc1)C(N)=O,inactive: -1.65%
17,CC(=O)c1ccc(N2CC2c2ccncc2)cc1 (stereo not given),inactive: 2.18%
18,COC(=O)C1(C)COP(=O)(NCc2ccccc2)OC1 (stereo not given),inactive: 1.28%
19,Cc1ccccc1CN(C)C(=O)COC(=O)C(O)(c1ccccc1)c1ccccc1,inactive: -0.33%
20,C[C@@H]1C=CCP(=O)(Oc2ccccc2)O1 (stereo not given in full),inactive: 0%
21,C[C@H]1OP(=O)(Oc2ccccc2)C[C@@H]2O[C@@H]21 (stereo not given in full),inactive: 0.9%
22,CC(=O)Nc1ccc([As](=O)(O)O)c(O)c1,inactive: -0.86%
23,CC(=O)Nc1ccc(Oc2c([N+](=O)[O-])cc([N+](=O)[O-])cc2[N+](=O)[O-])cc1,inactive: -19.9%
24,O=P1(Nc2nc3ccc(Cl)cc3s2)COc2ccccc2O1 (stereo not given),inactive: 1.15%
25,CCOc1ccc(C2=NCC(CBr)S2)cc1 (stereo not given),inactive: 0.31%

row,SMILES,Tm shift relative to glycine control
1,CCc1cc(O)c([N+](=O)[O-])c(C)c1[N+](=O)[O-],inactive: 2.42%
2,CC(C)(C)C(=O)NC(Sc1ccccc1)C(Cl)(Cl)Cl (stereo not given),inactive: 0.4%
3,COC(=O)c1cc2c(s1)N=C(c1ccccc1)N(C)P2(=O)N1CCOCC1 (stereo not given),inactive: 3.51%
4,Cc1ccc(OP(=O)(Nc2ccccn2)Oc2ccc(C)cc2)cc1,inactive: -0.6%
5,CC(=O)NC(SC(=S)N(CC(C)C)CC(C)C)C(Cl)(Cl)Cl (stereo not given),inactive: -0.92%
6,O=C(OC1CN2CCC1CC2)c1ccccc1 (stereo not given),inactive: -1.09%
7,CCC(=O)N1C2C3N(C(=O)CC)C1C1N(C(=O)CC)C(C(N1C(=O)CC)N3C(=O)CC)N2C(=O)CC,inactive: -0.64%
8,Cc1ccccc1OP(=O)(Nc1ccccn1)Oc1ccccc1C,inactive: 0.19%
9,CC(NC(=O)COC(=O)C(O)(c1ccccc1)c1ccccc1)c1ccccc1 (stereo not given),inactive: -0.17%
10,CN(C)C(=O)Oc1noc2ccccc12,inactive: 1.98%
11,O=c1c2cc([N+](=O)[O-])ccc2[nH]c2c([N+](=O)[O-])cc([N+](=O)[O-])cc12,active: 25.1%
12,CCNC(=S)/N=C(\N)N[N+](=O)[O-],inactive: 2.54%
13,O=C(NC1CCS(=O)(=O)C1)NP(=S)(Oc1ccccc1)Oc1ccccc1 (stereo not given),inactive: 2.02%
14,c1ccc(-c2nn[nH]n2)c(-c2nn[nH]n2)c1,inactive: -2.16%
15,Cc1ccc(NP(=O)(Oc2cccc(C)c2)Oc2cccc(C)c2)nc1,inactive: 2.25%
16,O=P1(N(CCCl)CCCl)OCCC2CCCCN21 (stereo not given),inactive: -2.95%
17,CCN(N=Nc1nonc1N)c1nonc1N,inactive: -2.23%
18,Nc1cccc2ccc([As](=O)(O)O)cc12,inactive: 4.86%
19,O=C(O)c1ccccc1[As](=O)(O)O,inactive: -0.4%
20,CCCC1OP(N)(=O)OCC1CC (stereo not given),inactive: -0.77%
21,O=P(Nc1nc2ccc(Cl)cc2s1)(c1ccccc1)c1ccccc1,inactive: -0.3%
22,CCOP(=O)(Nc1ccccc1)OCC,inactive: -0.68%
23,Cc1cc(SC(NC(=O)c2ccc(F)cc2)C(Cl)(Cl)Cl)ncn1 (stereo not given),inactive: 0.44%
24,Cc1ccc(NP(=O)(Oc2ccccc2F)Oc2ccccc2F)nc1,inactive: -0.2%
25,CC(C)CC(=O)NC(Sc1ccc(Cl)cc1)C(Cl)(Cl)Cl (stereo not given),inactive: -0.54%
